Literature values in publication PMC6738096 (British Journal of Cancer, 2019).

Tests used:
[1] = system: ALK-positive NSCLC; parameters: method as in not given; conditions: ALK pre-treated setting, post crizotinib; ref not given; cited from earlier work
[2] = system: ALK-positive NSCLC; conditions: cited from earlier work

CCc1cc2c(cc1N1CCC(N3CCOCC3)CC1)C(C)(C)c1[nH]c3cc(C#N)ccc3c1C2=O [alectinib]
Objective response rate [1]: 38–48%

C[C@@H](Oc1cc(-c2cnn(C3CCNCC3)c2)cnc1N)c1c(Cl)ccc(F)c1Cl [crizotinib]
Median progression-free survival ([2]; ALK-positive NSCLC, versus chemotherapy 7.0): 10.9 months
Response rate ([2]; ALK-positive NSCLC, versus chemotherapy 45%): 74%
Disease progression occurring within ([2]; acquired resistance in treated patients): ~ 1 year
